In ChEMBL document CHEMBL1759883, “Synthesis and biological evaluation of indazole derivatives” (Eur J Med Chem, 2011) one finds inhibition and Ratio data, which are given here for one compound.

Amino acid sequences for entries named in this document (tags omitted).
UniProt Q06518, whole entry, looked up: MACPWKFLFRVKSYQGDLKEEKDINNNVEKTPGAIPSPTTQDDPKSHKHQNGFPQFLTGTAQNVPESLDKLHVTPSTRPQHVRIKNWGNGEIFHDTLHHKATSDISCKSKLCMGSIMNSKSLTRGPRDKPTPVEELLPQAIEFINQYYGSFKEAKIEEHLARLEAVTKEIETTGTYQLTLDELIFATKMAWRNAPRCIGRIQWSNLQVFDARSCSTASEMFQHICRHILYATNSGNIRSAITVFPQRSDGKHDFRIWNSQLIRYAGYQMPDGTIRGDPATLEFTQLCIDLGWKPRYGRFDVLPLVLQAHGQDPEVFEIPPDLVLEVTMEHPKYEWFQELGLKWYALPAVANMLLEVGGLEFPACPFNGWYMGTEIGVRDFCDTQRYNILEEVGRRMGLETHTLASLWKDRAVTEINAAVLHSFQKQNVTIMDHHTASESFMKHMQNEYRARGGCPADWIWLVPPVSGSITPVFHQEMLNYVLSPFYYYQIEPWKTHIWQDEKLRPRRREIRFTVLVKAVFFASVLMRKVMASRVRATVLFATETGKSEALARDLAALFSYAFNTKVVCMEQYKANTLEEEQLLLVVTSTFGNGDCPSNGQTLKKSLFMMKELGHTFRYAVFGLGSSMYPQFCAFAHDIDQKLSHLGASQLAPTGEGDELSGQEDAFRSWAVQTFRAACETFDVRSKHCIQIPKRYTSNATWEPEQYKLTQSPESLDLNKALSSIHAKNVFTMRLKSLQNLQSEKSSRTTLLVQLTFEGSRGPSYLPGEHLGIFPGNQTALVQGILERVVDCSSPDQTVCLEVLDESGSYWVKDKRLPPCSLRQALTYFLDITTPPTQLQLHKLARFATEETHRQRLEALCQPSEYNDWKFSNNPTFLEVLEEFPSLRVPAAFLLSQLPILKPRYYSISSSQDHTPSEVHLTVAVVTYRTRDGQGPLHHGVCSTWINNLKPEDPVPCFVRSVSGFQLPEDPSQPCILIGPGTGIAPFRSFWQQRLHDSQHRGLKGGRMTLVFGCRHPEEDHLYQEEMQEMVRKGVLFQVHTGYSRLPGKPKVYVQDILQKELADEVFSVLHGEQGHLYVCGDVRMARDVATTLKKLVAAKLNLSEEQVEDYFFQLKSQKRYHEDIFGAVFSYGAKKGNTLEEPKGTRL
UniProt P29476, whole entry, looked up: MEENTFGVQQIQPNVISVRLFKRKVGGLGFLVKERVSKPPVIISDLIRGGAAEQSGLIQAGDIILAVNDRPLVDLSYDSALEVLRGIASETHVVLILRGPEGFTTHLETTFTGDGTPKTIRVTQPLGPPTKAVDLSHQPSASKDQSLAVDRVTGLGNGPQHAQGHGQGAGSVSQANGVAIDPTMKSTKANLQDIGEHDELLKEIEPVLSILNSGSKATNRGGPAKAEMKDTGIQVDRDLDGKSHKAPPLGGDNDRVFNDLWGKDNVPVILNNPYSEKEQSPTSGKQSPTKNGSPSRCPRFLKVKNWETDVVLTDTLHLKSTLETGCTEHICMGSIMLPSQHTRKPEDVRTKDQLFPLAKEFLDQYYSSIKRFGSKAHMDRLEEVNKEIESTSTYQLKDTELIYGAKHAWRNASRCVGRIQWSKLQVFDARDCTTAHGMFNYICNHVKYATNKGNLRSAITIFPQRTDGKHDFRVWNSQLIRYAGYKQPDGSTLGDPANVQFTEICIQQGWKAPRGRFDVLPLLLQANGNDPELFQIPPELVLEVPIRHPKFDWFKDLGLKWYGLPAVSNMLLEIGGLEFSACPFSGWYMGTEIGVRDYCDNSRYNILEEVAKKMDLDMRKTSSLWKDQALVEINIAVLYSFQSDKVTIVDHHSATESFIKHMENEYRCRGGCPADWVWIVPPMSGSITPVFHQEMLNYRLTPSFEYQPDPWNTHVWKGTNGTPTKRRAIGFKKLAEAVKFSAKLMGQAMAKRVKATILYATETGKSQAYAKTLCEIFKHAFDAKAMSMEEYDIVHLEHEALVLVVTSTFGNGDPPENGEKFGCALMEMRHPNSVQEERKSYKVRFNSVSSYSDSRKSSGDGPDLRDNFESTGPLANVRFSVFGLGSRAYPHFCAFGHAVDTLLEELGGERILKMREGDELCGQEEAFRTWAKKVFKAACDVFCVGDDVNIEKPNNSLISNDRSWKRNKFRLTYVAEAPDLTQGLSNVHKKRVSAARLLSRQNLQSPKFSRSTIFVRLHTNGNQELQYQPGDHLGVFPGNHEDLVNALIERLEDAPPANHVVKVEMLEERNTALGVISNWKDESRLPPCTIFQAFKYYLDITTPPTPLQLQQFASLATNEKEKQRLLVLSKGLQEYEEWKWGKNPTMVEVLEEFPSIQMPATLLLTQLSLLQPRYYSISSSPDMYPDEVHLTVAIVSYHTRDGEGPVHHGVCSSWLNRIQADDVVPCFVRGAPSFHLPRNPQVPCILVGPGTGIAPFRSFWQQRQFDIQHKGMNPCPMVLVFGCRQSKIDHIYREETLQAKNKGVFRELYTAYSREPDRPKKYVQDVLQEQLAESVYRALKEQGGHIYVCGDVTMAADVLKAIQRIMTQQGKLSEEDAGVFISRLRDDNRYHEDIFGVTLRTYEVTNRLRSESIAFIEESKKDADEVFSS

By inhibition is commonly meant the percentage by which the read-out fell short of the control.

Test [1] has as its target Nitric oxide synthase, inducible (Rattus norvegicus) (UniProt Q06518). Description: Inhibition of iNOS in LPS-stimulated Wistar rat lung assessed as inhibition of [3H]L-arginine to [3H]L-citrulline conversion at 1 mM by liquid scintillation counting. Summed up: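 Lungs from male Wistar rats (220–250 g) taken 6 h after i.v. LPS (10 mg/kg in saline), homogenized in Tris buffer pH 7.6 with protease inhibitors, and spun at 2500g. The supernatant was incubated 30 min at 37 °C with 10 µM L-arginine plus 40 nM L-³H-arginine, cofactors, 0.75 mM NADPH (final) and 10 mM EDTA. ³H-citrulline was isolated on Dowex-50W; compounds at 1 mM.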

For test [2], the target named is Nitric oxide synthase 1 (Rattus norvegicus) (UniProt P29476). Kind of test: Inhibition of nNOS in LPS-stimulated Wistar rat striata assessed as inhibition of [3H]L-arginine to [3H]L-citrulline conversion at 1 mM by liquid scintillation counting. The method, boiled down: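 Striata from untreated male Wistar rats (200–250 g) were sonicated in Tris pH 7.6 buffer with protease inhibitors and spun at 1000g for 5 min. The supernatant was incubated 30 min at 37 °C with 10 µM L-arginine, 40 nM L-³H-arginine, 0.1 mM CaCl₂, H₄-biopterin, FAD and 0.75 mM NADPH (final). Blanks lacked NADPH. ³H-citrulline was separated on Dowex-50W; compounds at 1 mM.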

Test [3] is filed under the species Rattus norvegicus. Description: Selectivity ratio of inhibition of iNOS in Wistar rat lung to inhibition of nNOS in Wistar rat striata.

The structures appear in SMILES notation.

Consider `O=[N+]([O-])c1n[nH]c2c([N+](=O)[O-])cccc12`, for which the inhibition is 89.3% in test [1] and 2.1% in test [2]. For the same compound, the Ratio in test [3] worked out at 40.
